# The list shows a part of the results, in another mix than the full data. Some of these compounds have results that are not shown, active ones among them. Calls of active or inactive are those of the source. Cut-off read from the data, not from the text of the source: active = inhibition above about 50%; inactive = the rest.
# By UniProt entry, the sequences of proteins in these tests, tags left out.
# UniProt O75030, whole entry: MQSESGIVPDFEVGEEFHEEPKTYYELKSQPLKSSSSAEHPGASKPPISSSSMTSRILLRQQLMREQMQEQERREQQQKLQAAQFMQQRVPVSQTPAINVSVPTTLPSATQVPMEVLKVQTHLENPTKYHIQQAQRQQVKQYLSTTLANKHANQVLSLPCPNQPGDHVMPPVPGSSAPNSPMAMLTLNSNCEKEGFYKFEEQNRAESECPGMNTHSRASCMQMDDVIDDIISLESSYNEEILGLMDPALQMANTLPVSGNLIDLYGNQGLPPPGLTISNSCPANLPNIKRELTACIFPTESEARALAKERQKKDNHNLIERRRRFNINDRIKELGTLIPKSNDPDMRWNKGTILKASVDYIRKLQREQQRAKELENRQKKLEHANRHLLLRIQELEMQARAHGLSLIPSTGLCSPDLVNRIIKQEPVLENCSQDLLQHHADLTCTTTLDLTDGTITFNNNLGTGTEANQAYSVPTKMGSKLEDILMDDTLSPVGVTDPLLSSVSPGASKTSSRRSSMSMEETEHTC
# Biological target: Microphthalmia-associated transcription factor (Homo sapiens) (UniProt O75030)
# Experiment: MITF inhibitors, primary screen, biochemical, AlphaScreen, human (AID 1259374);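 note: 0% = vehicle wells with protein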
# Conditions: AlphaScreen MITF homodimerization, bead proximity signal; at 2.6 µM; hits give high values
row,Structure (SMILES),inhibition
1,O=C(c1ccco1)N(Cc1ccco1)C1CCN(CCc2cccs2)CC1,inactive: 0.42%
2,CC(=O)N(Cc1cccnc1)C1CCN(CCc2cccs2)CC1,inactive: 19.1%
